Experimental data as given in publication PMC8661032, “Broad-Spectrum Antibacterial Peptide Kills Extracellular and Intracellular Bacteria Without Affecting Epithelialization” (Frontiers in Microbiology, 2021).
Residues, ends and D or L forms follow the SMILES beside them.

Key:
E. coli = assay: Rifampicin (RifR) mutagenesis assay after UV-C; assay type: cell-based, Escherichia coli; conditions: 20 μg/mL, UV-C 20 mJ/cm2, RifR assay, three independent experiments
Method: The rifampicin (Rif^R) mutagenesis assay was performed as described ([Nedal et al., 2020]). Briefly, an overnight culture of E. coli was diluted 1:1,000 and grown until an OD600 of 0.01. APIM-peptides (20 μg/ml) were added to LB media with glass beads (for uniform distribution of APIM-peptides) and incubated for 30 min at 37°C. The pellets were next collected, resuspended in 500 μl PBS, and exposed to UV-C (20 mJ/cm^2) in a six-well plate at 4°C. The unexposed bacteria (-UV) were otherwise handled exactly like the UV-exposed bacteria. Next, the cells were resuspended in LB media and incubated in a rotary shaker at 37°C at 250 rpm for 2 h before being harvested, diluted, and plated on LB with soft agar with and without rifampicin (100 μg/ml). Mutation frequency, Rif^R/10^8, is obtained as follows: (number of colonies on the rifampicin plate (Rif^R)/(number of colonies on LB plates without antibiotics), per milliliter of bacterial suspension.
Supplementary Figure S3 (related to Table 2): Peptide 2 (betatide) reduces UV-induced […]
mutagenesis in E. coli more efficiently than the other peptide variants.
Increase in mutation frequencies after treatment with UV-C (20 mJ/cm2) relative to spontaneous mutations frequencies using the RifR assay were determined. This increase is set to 100% for untreated control, and % reduction after addition of peptides 1-5 (20 μg/mL) are shown. […]

[1] = tested on: S. aureus ATCC 29213 and SO-SAU19-1; conditions: S. aureus ATCC 29213, serial passage, parallel 2, after 30 days

In the case of `CC[C@H](C)[C@H](NC(=O)CNC(=O)[C@H](CCCCN)NC(=O)[C@@H](NC(=O)[C@H](CC(C)C)NC(=O)[C@H](Cc1c[nH]c2ccccc12)NC(=O)[C@H](CCCNC(=N)N)NC(=O)[C@H](CC(=O)O)NC(=O)[C@H](CCSC)NC(C)=O)C(C)C)C(=O)N[C@@H](CC(C)C)C(=O)N[C@@H](CCC(N)=O)C(=O)N[C@@H](Cc1c[nH]c2ccccc12)C(=O)N[C@@H](CCCNC(=N)N)C(=O)N[C@@H](CCCCN)C(=O)N[C@H](C(=O)N[C@@H](CCCNC(=N)N)C(=O)N[C@@H](CCCNC(=N)N)C(=O)N[C@@H](CCCNC(=N)N)C(=O)N[C@@H](CCCNC(=N)N)C(=O)N[C@@H](CCCNC(=N)N)C(=O)N[C@@H](CCCNC(=N)N)C(=O)N[C@@H](CCCNC(=N)N)C(=O)N[C@@H](CCCNC(=N)N)C(=O)N[C@@H](CCCNC(=N)N)C(=O)N[C@@H](CCCNC(=N)N)C(=O)N[C@@H](CCCNC(=N)N)C(N)=O)[C@@H](C)CC` [betatide] (Ac-MDRWLVKGILQWRKIRRRRRRRRRRR-NH2), the “UV-induced mutation frequencies relative to control” value (E. coli) is reported as “significantly reduced” and the resistance development [1] is reported as “no detectable resistance development”.
